Measured values taken from article PMC9095466 (Nature, 2022).
Values joined by “and” are separate entries in the source; they are usually repeats but may differ in a detail not shown here. Equal values may be shown once.

System: SARS-CoV-2 lineage B strain (VIDO)
Format: cell-based

CC(=O)NC(CCC(N)=O)C(=O)NC(CC1CCCCC1)C(=O)NC(CCCNC(=N)N)C(=O)c1nc2ccccc2s1 (centres unmarked) [Compound N-0676]
Nucleocapsid: 41.1773 and 66.0403
dsRNA: 33.6131 and 60.7909
